From patent US20040097454A1, “Method for modulation of cell phenotype” (University Technology Corporation, priority 1999, published 2004)
“Also recorded” adds a separate entry of the source.

Legend:
[1] = tested on: PEPCK gene promoter in NIH 3T3-L1 clonal cell lines; test: Truncated CRE-containing PEPCK promoter luciferase reporter (-109 pPC-Luc) in 3T3-L1 clones; format: cell-based; details: KCREB clones 2-1 and 2-10
Method: To test the ability of KCREB and VP16-CREB expression to influence gene transcription, a plasmid containing a truncated, CRE-containing portion of the phosphoenolpyruvate carboxykinase (PEPCK) gene promoter linked to a luciferase reporter gene (−109 pPC-Luc) was transfected into each of the clones. […] Four hours later cell lysates were prepared and luciferase activity measured as an index of transcriptional activity. Levels are shown relative to levels of luciferase activity in untreated, control cells (No Add'n).

[2] = tested on: CREluc reporter in HEK cells; test: CREluc reporter in HEK cells transfected with CREB constructs; format: cell-based; details: transient transfection of adenoviral expression plasmids
Excerpt: CDNA for KCREB, CREB DIEDML and VP16CREB were cloned into adenoviral expression vectors as described previously herein. The plasmids were transiently transfected into HEK cells to assess their impact upon a cotransfected CREluc reporter construct. […] Transfected cells were also lysed and CREB protein content and Flag content assayed Western analysis. All proteins were highly expressed in HEK cells (data not shown).

mature 3T3-L1 adipocytes = test: Triacylglycerol stores in mature 3T3-L1 adipocytes after KCREB expression; format: cell-based; details: in continued presence of insulin
Excerpt: Thus, CREB not only initiates adipogenesis, but appears to play a key role in maintaining the mature adipocyte phenotype.

[3] = tested on: visceral adipose tissue cells in obese mice; test: Intraperitoneal adenovirus-KCREB in obese mice (planned); format: in vivo; details: adenovirus vector intraperitoneal
Excerpt: The ability of KCREB to decrease triacylglycerol storage in visceral adipose tissue cells in obese mice will be evaluated via intraperitoneal injection of an adenovirus-KCREB vector. For these experiments, two models of obesity have been selected: (1) a diet-induced model using AKR/J mice; and (2) a genetic model using obese, leptin-deficient C57/B16J ob-/ob- mice. […] Ob-/ob- mice were selected as the genetic model, as it is well characterized and widely employed as a conventional genetic model of obesity. Two models will be used to account for any model specific factors, and provide complimentary data from two systems.
The KCREB is delivered to the abdominal adipose depots using an adenovirus vector injected into the peritoneal cavity adjacent to this tissue. In future studies, the role of CREB in adipose tissue function will be assessed through a variety of methods including transgenic mice. […]
Following injection of the adenovirus vectors, various biochemical, morphological, and behavior parameters are measured to evaluate the effectors of KCREB. […] Although changes in visceral fat tissue are the focus of these studies, the other fat depots are evaluated since changes in one fat depot may produce changes in other sites. […] Whole body lipid content is measured by digestion of the animals in ethanol-KOH. […]

[4] = tested on: PEPCK, FABP and FAS gene promoters in 3T3-L1 fibroblasts; test: Full length PEPCK, FABP and FAS promoter luciferase reporters in 3T3-L1 fibroblasts; format: cell-based
Method: Control, VP16-CREB or KCREB inducibly expressing 3T3-L1 fibroblasts were transfected with plasmids containing the full length promoters of the PEPCK, FABP or FAS genes linked to luciferase. The cells were cotransfected with the internal control plasmid, pRSV-pGal. […] Cell lysates were then prepared, and luciferase activity measured as an index of transcriptional activity. Levels of transcription are shown relative to levels measured in untreated cells for each promoter tested, and were corrected for transfection efficiency.

3T3-L1 cells = test: 3T3-L1 cell proliferation (Cell-Titer 96 Aq); format: cell-based; details: muristerone-treated versus control clones, 72 hours
Method: 3T3-L1 fibroblasts were passaged and treated with differentiation-inducing agents as previously described (Klemm et al., 1998, J. Biol. Chem., 273:917-923), incorporated herein by reference in its entirety. Plates of 3T3-L1 fibroblasts and adipocytes were grown to 70-80% confluency and transfected with the above-described plasmids with Superfect Reagent (Oiagen, Valencia, Calif.) according to the manufacturer's recommendations. Cells stably transfected with the plasmid, pVgRXR were selected for in conventional medium containing 500 ug/mi Zeocin, and cells stably transfected with pIND-VP16-CREB, pIND-KCREB or pIND-LacZ plasmids were selected for in medium containing 500 ug/ml Geneticin. Large, rapidly growing, well separated colonies were isolated 10 to 12 days after selection was begun with either antibiotic. […] The effect of VP16-CREB and KCREB expression on 3T3-L1 proliferation was assessed by measuring cell number with the Cell-Titer 96 Aq reagent system (Promega Corp., Madison, Wis.).
Two possible mechanisms by which CREB could potentiate adipose differentiation would be by increasing cell proliferation related to clonal expansion, or by inhibiting cell growth as a prelude to terminal differentiation. To examine these possibilities, changes in the rate of cell growth in control versus muristerone-treated VP16-CREB and KCREB expressing clones was measured.

[5] = tested on: PPARγ2 and FABP expression in 3T3-L1 cell lines; test: Expression of adipocyte-specific markers PPARγ2 (Western) and FABP (RNA blot); format: cell-based; details: KCREB expressed before and during the conventional differentiation-inducing mixture
Method: In this experiment, control, VP16-CREB and KCREB expressing cells lines were grown and treated as above. On days 0 and 10 of the experiment, whole cell lysates and total RNA were prepared from duplicate wells of cells. Approximately 25 ug of protein in the cell lysates (lysed directly on multiwell slides in SDS gel loading buffer) was separated on 10% polyacrylamide-SDS gels and transferred to nitrocellulose blots. The blots were probed with a polyclonal antibody to PPARγ2, and the specific PPARγ2 band is indicated by an * in the top row of blots (FIG. 3).
Similarly, 10 ug of total RNA was separated on 1% denaturing (formaldehyde) agarose gels run at 5 V/cm until the Bromophenol Blue tracking dye had migrated half the length of the gel. The gels were soaked in several changes of distilled water, overnight at 4° C., and stained with ethidium bromide and briefly examined in ultraviolet light to insure RNA integrity and equivalent RNA amounts in each lane. The gels were destained in several changes of 5× sodium chloride/sodium citrate (SSC) buffer. RNA was transferred onto nitrocellulose membranes. The resulting blots were heated to 80° C. under vacuum for two hours. The membranes were blocked for 30 minutes at 70° C., and then a biotin-labeled FABP-specific oligonucleotide probe (250 fg/ml) was added for an additional 30 min. […]

[6] = tested on: NIH 3T3-L1 preadipocyte cell lines; test: Adipocyte differentiation assay, Oil Red O staining of triacylglycerol; format: cell-based
Method: Differentiation assays were performed on cells growing on 8 chamber microscope slides. […] The cells were treated with a differentiation mixture, muristerone, or both. […] Muristerone was added to medium at a final concentration of 10 uM for the entire 10 day differentiation period. After 10 days in culture, the cells were stained with Oil Red 0 to visualize triacylglycerol vesicles as previously described (Klemm et al., 1998, J. Biol. Chem., 273:917-923), and counterstained with hematoxylin to visualize cell morphology. Cells were observed by brightfield microscopy and representative fields, were photographed.

B1: KCREB: dominant negative CREB mutant with arginine to leucine substitution in the DNA binding domain, SEQ ID NO:8 (protein, listed as Homo sapiens)
chain: MTMESGAENQQSGDAAVTEAENQEMTVQAQPQIATLAQVSMPAAHATSSAPTVTLVQLPNGQTVQVHGVIQAAQPSVIQSPQVQTVQISTIAESEDSQESVDSVTDSQKRREILSRRPSYRKILNDLSSDAPGVPRIEEEKSEEETSAPAITTVTVPTPIYQTSSGQYIAITQGGAIQLANNGTDGVQGLQTLTMTNAAATQPGTTILQYAQTTDGQQILVPSNQVVVQAASGDVQTYQIRTAPTSTIAPGVVMASSPALPTQPAEEAARKREVRLMKNREAARECRRKKKEYVKCLENRVAVLENQNKTLIEELKALKDLYCHKSDZ
[1]; overnight 10 uM muristerone alone
  basal transcription from truncated PEPCK promoter: no effect on basal transcription levels
[1]; overnight muristerone then 0.5 mM Bt2cAMP
  Bt2cAMP-stimulated transcription from truncated PEPCK promoter: efficiently inhibited Bt2cAMP-stimulated transcription
[2]
  CREluc reporter luciferase expression: decreases luciferase expression
Mature 3T3-L1 adipocytes
  triacylglycerol stores / vesicles in mature adipocytes: complete loss of triacylglycerol stores within three to six days; also recorded: completely lost their triacylglycerol vesicles within three to six days; also recorded: dedifferentiation with loss of triacylglycerol vesicles
[3]
  adipose triacylglycerol stores: will decrease adipose triacylglycerol stores in obese mice
[4]; muristerone-induced KCREB
  basal transcription from full-length PEPCK, FABP and FAS promoters: decreased basal transcription levels slightly
[4]; muristerone-induced KCREB plus mixture, 4 hours
  stimulation of transcription by the differentiation-inducing mixture, PEPCK, FABP and FAS promoters: completely blocked the stimulation of transcription
3T3-L1 cells
  rate of cell proliferation: No significant differences in the rate of cell proliferation
[5]
  appearance of PPARγ2 and FABP, day 10: completely blocked the appearance of both PPARγ2 and FABP
[6]; KCREB induced for the entire 9 or 10 day differentiation period
  cells exhibiting lipid accumulation: no cells exhibited lipid accumulation
[6]; KCREB induced with muristerone for only the first 48 hours, differentiation mixture
  cells exhibiting low levels of triacylglycerol storage and rounded morphology: 5 to 10%
[6]; muristerone prior to and during exposure to the differentiation-inducing mixture
  signs of adipocyte differentiation (Oil Red O): failed to exhibit signs of differentiation
